Measured values as given in ChEMBL document CHEMBL1938349 (Bioorg Med Chem, 2012).

Molecular target: T1, 5-hydroxytryptamine receptor 2C (Rattus norvegicus, UniProt P08909)
T1 sequence (P08909 whole entry): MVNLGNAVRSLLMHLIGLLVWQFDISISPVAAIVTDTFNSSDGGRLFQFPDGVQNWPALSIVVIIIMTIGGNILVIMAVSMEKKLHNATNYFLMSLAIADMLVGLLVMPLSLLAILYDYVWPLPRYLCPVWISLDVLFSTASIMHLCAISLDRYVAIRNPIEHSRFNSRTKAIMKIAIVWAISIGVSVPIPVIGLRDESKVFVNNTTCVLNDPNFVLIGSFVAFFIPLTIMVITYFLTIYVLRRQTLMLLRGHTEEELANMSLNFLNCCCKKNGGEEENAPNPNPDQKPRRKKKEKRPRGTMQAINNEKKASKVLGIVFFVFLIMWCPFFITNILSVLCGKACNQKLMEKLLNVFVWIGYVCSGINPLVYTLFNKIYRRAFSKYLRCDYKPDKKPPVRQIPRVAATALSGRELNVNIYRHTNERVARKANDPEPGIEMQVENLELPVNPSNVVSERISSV
Assay: Displacement of [3H]mesulergine from rat 5HT2C receptor by liquid scintillation counting

Compound: OC1(c2ccc(Cl)cc2)CCN(CCCSc2ccc(F)cc2)CC1
- Ki: > 10 µM
